pIC50: −log10 of the molar value. Where two headings read alike, the source gives them in different places.
Tests used:
FLT3 mutant D835Y = FLT3 mutant D835Y (Homo sapiens, UniProt P36888, D835Y); assay: Inhibition of enzymatic FLT3 mutant D835Y kinase activity (Lance Ulight TR-FRET); format: biochemical; conditions: read-out: FLT3-D835Y IC50
[1] = Drug exposure in rat after oral administration; conditions: oral administration of 10 mg/kg
[2] = molecular target: Truncated human FLT3 wildtype (Homo sapiens, UniProt P36888); assay: Inhibition of enzymatic FLT3 wildtype kinase activity (Lance Ulight TR-FRET); format: biochemical; conditions: read-out: FLT3 wildtype IC50; tested form: HCl
[3] = tested on: MV4-11 cells expressing human FLT3-ITD; assay: Cell viability assay: inhibition of FLT3-ITD-positive cells (ATPLite); conditions: read-out: MV4-11 cell (IC50); 72 hour incubation; tested form: HCl
JAK2 = JAK2 (Homo sapiens, UniProt O60674); assay: Inhibition of enzymatic JAK2 kinase activity (Lance Ulight TR-FRET); format: biochemical; conditions: read-out: JAK2 IC50; tested form: HCl

Chains of the proteins cited; added tags and fusions are not shown. Lines headed by an entry give the natural chain unless they say otherwise; changes in a name come on top. Residues count along the entry.
UniProt P36888, 564-993 D835Y limits assumed: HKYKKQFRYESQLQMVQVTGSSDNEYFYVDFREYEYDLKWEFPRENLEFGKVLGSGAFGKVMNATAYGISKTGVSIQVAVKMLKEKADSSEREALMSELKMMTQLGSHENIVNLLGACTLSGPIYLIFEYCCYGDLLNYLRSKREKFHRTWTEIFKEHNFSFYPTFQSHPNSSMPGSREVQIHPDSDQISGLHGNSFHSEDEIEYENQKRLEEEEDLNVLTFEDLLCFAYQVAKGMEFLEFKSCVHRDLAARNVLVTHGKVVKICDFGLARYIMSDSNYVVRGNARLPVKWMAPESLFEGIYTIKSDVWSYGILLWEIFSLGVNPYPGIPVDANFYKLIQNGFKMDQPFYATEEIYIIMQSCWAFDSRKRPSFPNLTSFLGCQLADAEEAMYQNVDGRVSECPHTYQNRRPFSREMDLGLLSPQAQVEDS
UniProt P36888, 564-993 limits assumed: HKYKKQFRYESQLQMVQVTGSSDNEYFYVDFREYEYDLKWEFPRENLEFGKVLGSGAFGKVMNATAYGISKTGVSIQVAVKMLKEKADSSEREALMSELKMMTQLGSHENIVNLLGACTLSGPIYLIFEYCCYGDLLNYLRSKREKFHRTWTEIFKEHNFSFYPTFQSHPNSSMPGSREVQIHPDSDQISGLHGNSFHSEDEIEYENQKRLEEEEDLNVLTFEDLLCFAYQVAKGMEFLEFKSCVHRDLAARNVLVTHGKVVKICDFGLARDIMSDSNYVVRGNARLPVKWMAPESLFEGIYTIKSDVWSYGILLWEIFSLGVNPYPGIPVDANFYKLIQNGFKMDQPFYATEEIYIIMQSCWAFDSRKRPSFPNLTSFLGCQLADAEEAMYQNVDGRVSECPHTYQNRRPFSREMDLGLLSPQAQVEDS
UniProt O60674, 826-1132 limits assumed: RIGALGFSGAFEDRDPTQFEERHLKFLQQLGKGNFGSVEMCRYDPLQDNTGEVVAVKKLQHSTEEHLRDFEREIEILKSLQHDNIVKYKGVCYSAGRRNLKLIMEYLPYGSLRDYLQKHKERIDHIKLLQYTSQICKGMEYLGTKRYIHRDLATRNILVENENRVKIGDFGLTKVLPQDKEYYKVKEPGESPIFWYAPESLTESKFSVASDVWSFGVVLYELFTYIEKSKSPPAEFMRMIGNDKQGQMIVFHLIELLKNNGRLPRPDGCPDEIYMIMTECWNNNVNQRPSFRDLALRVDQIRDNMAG

SMILES	pIC50 (FLT3 mutant D835Y)	drug exposure [1]	pIC50 (FLT3 mutant D835Y; tested form: HCl)	pIC50 [2]	pIC50 [3]	pIC50 (JAK2)
O=c1[nH]ccc2nc(N[C@H]3CCNC3)nc(Nc3ccc(N4CCOCC4)cc3)c12	9.52	no drug exposure	–	–	–	–
NC1CCN(c2nc(Nc3ccc(Oc4ccccc4)cc3)c3c(=O)[nH]cc(Br)c3n2)CC1	–	–	7.73	9.70	8.24	6.41
O=c1[nH]ccc2nc(N[C@H]3CCNC3)nc(Nc3ccc(C(F)(F)F)cc3)c12	9.00	no drug exposure	–	–	–	–

— patent US8877763B2, “Substituted pyridopyrimidine compounds and their use as FLT3 inhibitors” (Genosco, priority 2012, dated 2014)
